# Ab-91 heavy chain CDR variants: yeast mating affinities

The target is the same throughout: PDVDLGDISGINAS, from the HR2 region of SARS-CoV-2 spike.

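The starting antibody came from a phage panning campaign against this peptide. Variants in AAYL51 differ from the parent at up to three CDR positions; double and triple changes were sampled at random. AlphaSeq pools MATa yeast showing the antibodies with MATalpha yeast showing the peptide. Mating (16 h, 30 °C) was followed by selection of diploids and sequencing of their barcodes. Each replicate has its own calibration line, from reference interactions of the BCL2 family. There are three technical replicates.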

The variants keep the light chain, the linker and the frameworks of Ab-91 (scFv order VL, a 15-residue (Gly4Ser)3 linker, VH).
VL: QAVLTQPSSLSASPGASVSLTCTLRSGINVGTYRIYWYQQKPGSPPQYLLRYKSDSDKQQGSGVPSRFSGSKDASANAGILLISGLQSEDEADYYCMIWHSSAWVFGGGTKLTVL
VH: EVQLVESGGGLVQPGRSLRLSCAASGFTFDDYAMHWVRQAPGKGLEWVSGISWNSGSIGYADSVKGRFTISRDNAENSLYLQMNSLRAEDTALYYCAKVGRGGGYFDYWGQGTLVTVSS

Changes read parent residue, position, new residue, counted from the first residue of the VH shown. Values are apparent Kd, the geometric mean of the replicates that gave a signal; lower means stronger binding. "not detected" marks a missing value. The strain was present, yet no cells mated with the target were sequenced in any replicate, which points to weak or no binding. The list is sorted by this average, lowest first, undetected variants last. Three control strains display no target. For library AAYL51, 21% of the pairings with them gave a signal, with a median of 34 µM and one signal in twenty below 1.8 µM, so weak values seen in few replicates may be background. For reference, the parent read 72 nM as the reference entry and 7.5 nM as a member of this library.

changes,Kd,detected
S63V/Y105C/D107M,5.2 nM,3 of 3
A61S/F106V,13 nM,3 of 3
D30W/W53F,23 nM,3 of 3
G100W/R101V/G103R,35 nM,3 of 3
F27S/I58T/D62Y,36 nM,3 of 3
H35Y/I51L/N54R,64 nM,1 of 3
G104E/Y108W,210 nM,3 of 3
G56F/I58W/V99T,460 nM,1 of 3
D31S/S55N/I58C,550 nM,3 of 3
D31V/G56M/A61I,950 nM,3 of 3
D31R/I51H/F106K,1.8 µM,1 of 3
F27A/Y60E/G103W,3.2 µM,1 of 3
A33T/Y60F/G100K,4.1 µM,1 of 3
D30A/W53Y/Y105F,6.1 µM,3 of 3
D30R/G56N/G59V,9.7 µM,2 of 3
F29C/Y60A/G103T,12 µM,1 of 3
Y32V/G102A/D107G,13 µM,1 of 3
D30A/G100K,29 µM,2 of 3
G59E/Y108F,47 µM,2 of 3
I51C/I58H/G103Y,57 µM,3 of 3
M34L/G103I,61 µM,3 of 3
S52L/K65F/D107R,61 µM,1 of 3
G56L/S63L/G100K,68 µM,3 of 3
Y32N/Y60P,98 µM,2 of 3
F27Y/F29T/Y105E,130 µM,1 of 3

The remaining entries, values ahead:

Kd,detected,changes
140 µM,3 of 3,G26S/D62P
140 µM,2 of 3,H35S/S55D/F106H
170 µM,3 of 3,H35M/Y108S
190 µM,2 of 3,T28N/A33N
230 µM,3 of 3,W53I/S57Q
250 µM,2 of 3,F27E/Y32M/I51D
280 µM,2 of 3,W53F/G56W
1.1 mM,1 of 3,F29S/S63Y/Y105L
1.5 mM,1 of 3,S57Q/G59E/V99C
not detected,0 of 3,F29A/G50R/G103H
not detected,0 of 3,I51V/I58N
not detected,0 of 3,I51G/S52Q/V64C
not detected,0 of 3,Y32Q/M34E/S52H
not detected,0 of 3,G26E/Y60G
not detected,0 of 3,M34H/Y105E
not detected,0 of 3,W53V/G100N/G102D
not detected,0 of 3,G26N/A61H/D107Q
not detected,0 of 3,Y60W/V64W/V99A
not detected,0 of 3,G26W/Y32Q/S52Y
not detected,0 of 3,H35C/I51Q/S63T
not detected,0 of 3,G59I/A61Q/G100F
not detected,0 of 3,W53I/Y60D/G103K
not detected,0 of 3,M34T/W53Y/G56E
not detected,0 of 3,A33V/W53M/D62M
not detected,0 of 3,F27V/H35N/W53Y

Repeated from above, the 3 best binders with a signal in all replicates:

changes	Kd	detected
S63V/Y105C/D107M	5.2 nM	3 of 3
A61S/F106V	13 nM	3 of 3
D30W/W53F	23 nM	3 of 3

Source: Engelhart et al. 2022 (doi:10.1038/s41597-022-01779-4), MIT Lincoln Laboratory and A-Alpha Bio; data file from the FLAb repository.